Source: PMC11802874, “The hypolipidemic effect of MI-883, the combined CAR agonist/ PXR antagonist, in diet-induced hypercholesterolemia model” (Nature Communications, 2025)

System: HepaRG cells

CYP7A1 mRNA in HepaRG cells: downregulated
SMILES: CO[C@H]1/C=C/O[C@@]2(C)Oc3c(C)c(O)c4c(O)c(c(/C=N/N5CCN(C)CC5)c(O)c4c3C2=O)NC(=O)/C(C)=C\C=C\[C@H](C)[C@H](O)[C@@H](C)[C@@H](O)[C@@H](C)[C@H](OC(C)=O)[C@@H]1C [rifampicin, reference compound]
